Data reported in PubChem BioAssay AID463173 (ICCB-Longwood Screening Facility, Harvard Medical School, 2010).
This is a selection; strong and weak results do not stand in their true shares. Some of these compounds have results that are not shown, active ones among them. Active and inactive are the calls of the source. Cut-off read from the data, not from the text of the source: active = survival mostly below about 52% (no sharp cut-off); inactive = mostly above about 56%.

The molecules below were run on Wild type (assay: growth inhibition of S. aureus wild type versus tarO mutant, primary screen, teichoic acid synthesis inhibitors, RN4220, OD600 (AID 463173)). Details: S. aureus RN4220 wild type/DeltatarO growth, OD600, 18 h, active compounds read low, screened at 18.75 µg/mL (by protocol).

Which survival does the source give for `CCOc1cccc(C(=O)NCC2(N(C)C)CCCCC2)c1` here?
The survival was inactive: 88%.

`CN(C)C1(CNC(=O)c2ccccc2[N+](=O)[O-])CCCCC1` was tested. Which survival did it give?
The survival was inactive: 98%.

How did the survival turn out when `CCCCOc1ccccc1C(=O)NCC1(N(C)C)CCCCC1` was run?
The survival was inactive: 90%.

`CN(C)C1(CNC(=O)c2cccc(Cl)c2)CCCCC1` was tested. Which survival did it give?
The survival was inactive: 91%.

How did the survival turn out when `CN(C)C1(CNC(=O)c2ccccc2F)CCCCC1` was run?
The survival was inactive: 89%.

For `Cc1cccc(C(=O)NCC2(N(C)C)CCCCC2)c1`, which survival is on record?
The survival was inactive: 87%.

`COc1cc(C(=O)NCC2(N(C)C)CCCCC2)cc(OC)c1OC` was tested. Which survival did it give?
The survival was inactive: 90%.

For `CN1C2CCC1CC(OC(=O)C(O)(c1ccccc1)c1ccccc1)C2` (configuration not stated), which survival is on record?
The survival was inactive: 109%.

For `CC(C)Oc1ccc(C(=O)NCC2(N(C)C)CCCCC2)cc1`, which survival is on record?
The survival was inactive: 87%.

For `COc1cccc(C(=O)NCC2(N3CCOCC3)CCCCC2)c1`, which survival is on record?
The survival was inactive: 97%.

How did the survival turn out when `CC(C)COc1ccc(C(=O)NCC2(N(C)C)CCCCC2)cc1` was run?
The survival was inactive: 88%.

With `COc1ccc(C(=O)NCC2(N(C)C)CCCCC2)cc1Cl` as the molecule, how does the survival read?
The survival was inactive: 88%.
